Measured values reported in patent US11793801B2, “Treatment of pain and neurological conditions” (BioCorRx, Inc., priority 2020, dated 2023).

By UniProt entry, the sequences of proteins in these tests, tags left out.
UniProt P35372, whole entry: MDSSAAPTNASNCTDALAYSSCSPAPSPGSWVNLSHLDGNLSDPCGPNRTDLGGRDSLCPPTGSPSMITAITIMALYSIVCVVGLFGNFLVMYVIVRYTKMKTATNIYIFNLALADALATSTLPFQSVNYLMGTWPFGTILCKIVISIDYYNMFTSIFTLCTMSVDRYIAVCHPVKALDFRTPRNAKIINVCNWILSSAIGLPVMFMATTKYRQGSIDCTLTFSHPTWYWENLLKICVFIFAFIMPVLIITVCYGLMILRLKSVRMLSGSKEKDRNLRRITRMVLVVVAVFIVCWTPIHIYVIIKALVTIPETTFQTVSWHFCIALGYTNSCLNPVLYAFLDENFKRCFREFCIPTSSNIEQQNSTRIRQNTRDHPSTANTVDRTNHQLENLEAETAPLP

Target: mu opiate receptor (Homo sapiens, UniProt P35372)
Assay: antagonism of the effects of fentanyl
Conditions: effect induced by fentanyl through the mu opiate receptor

Compound: CCC(=O)NC1CC(C)N(CCc2ccccc2)CC1C (centres unmarked) [Compound 1, N-[2,5-dimethyl-1-(2-phenylethyl)piperidin-4-yl]propanamide]
- antagonism of fentanyl-induced analgesia: potent antagonist
- antagonism of fentanyl-induced respiratory depression: potent antagonist

This is a selection: effects in other tests are not listed, and their absence says nothing.
